The values below come from paper PMC4319893 (2015).

Amino acid sequences for entries named in this document (tags omitted).
UniProt Q9P021, whole entry: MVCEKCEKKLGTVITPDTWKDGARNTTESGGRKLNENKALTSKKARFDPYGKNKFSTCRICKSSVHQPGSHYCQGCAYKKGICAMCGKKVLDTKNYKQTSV

The target of the test is CRIPT (Homo sapiens, UniProt Q9P021). The test is described as follows: fluorescence polarization.

B1: PSD-95 PDZ2 (protein)
chain: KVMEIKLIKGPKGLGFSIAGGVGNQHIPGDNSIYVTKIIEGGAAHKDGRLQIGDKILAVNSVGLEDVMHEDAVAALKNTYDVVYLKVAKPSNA
Take B1: the Ki came to 25 µM.
